Laboratory results: patent US10220005B2, “Synergistic therapies of cannabidiol with hypothermia for neuroprotection” (GW Research Limited, priority 2012, dated 2019)

Key:
[1] = test system: astrocytes; assay: Piglet HI brain damage with normothermia or hypothermia, astrocytes (GFAP) in parietal cortex; format: in vivo; settings: CBD 1 mg/kg i.v.
Procedure: (§1) Sedated and ventilated piglets (1-2 day-old) underwent HI brain damage (hypoxia-FiO2 10%+bilateral carotid artery compression for 30 min).
(§2) Normothermic (NT) piglets were maintained at 37-38° C. using a warmed air blanket.
(§3) Hypothermic (HT) piglets were cooled by a cool water mattress to 33-34° C.
(§4) Thirty min after HI piglets received via the i.v. route either vehicle (VEH) or CBD (1 mg/kg).
(§5) HI brains were obtained for histological studies quantifying the number of neurons
(§6) (Nissl), astrocytes (GFAP) and microglial cells (mGC) (IBA-1) in parietal cortex 6 hours after HI injury.
(§7) By dividing the area percentage of GFAP- or IBA-1-immunoreactive processes and cell bodies (ImageJ) by the number of cells, a mean size of astrocytes or mGC was obtained.
(§8) Similarly studied animals without HI insult served as controls (Sham, SHM).

[2] = test system: neurons; assay: Piglet HI brain damage with normothermia or hypothermia, neurons (Nissl) in parietal cortex; format: in vivo; settings: for Percentage of necrotic neurons in the cortex, MEAN: HI injury + CBD 1 mg/kg i.v., 6 hours after HI
Procedure: as §1, §2, §3, §4, §5, §6, §8

[3] = test system: rat model of HI; assay: Rat model of HI, magnetic resonance imaging of brain lesion; format: in vivo, Wistar rats; settings: rats, CBD 1 mg/kg s.c. single dose, 7 days after HI
Procedure: A rat model of HI was used as described by (Fernandez-Lopez et al., 2007). Briefly, an HI insult is induced in 7-10 day-old Wistar rats by electro-coagulating the left carotid artery under anaesthesia following by the exposure to 10% oxygen for 120 min.
After the end of HI, pups were treated with 0.1 mL s.c. of vehicle or CBD (1 mg/kg) in a single dose.
Sham operated pups without hypoxia served as controls, and were treated with vehicle or CBD as indicated. The pups were then returned to their dams.
Rats were then euthanized and the brain removed and stored in 4% paraforlmadehide. Magnetic resonance imaging was performed on the brains to evaluate the damaged area. In some rats, MRI was performed 7 days after HI.

[4] = test system: microglial cells; assay: Piglet HI brain damage with normothermia or hypothermia, microglial cells (IBA-1) in parietal cortex; format: in vivo; settings: for Mean size of microglial cells after HI injury: HI injury + CBD 1 mg/kg i.v., 6 hours after HI
Procedure: as §1, §2, §3, §4, §5, §6, §7, §8

With `C=C(C)[C@@H]1CCC(C)=C[C@H]1c1c(O)cc(CCCCC)cc1O` [CBD, cannabidiol] the “astrocyte activity (increased processes equals an increased mean size)” value ([1]; particularly in CBD plus hypothermia) was “enhanced”, the “HI-induced reduction in the number of astrocytes” value ([1]; particularly in the hypothermia treated animals) was “prevented” and the Neuronal protection ([2]; CBD plus hypothermia treated animals, p<0.05) was “best”. For the same compound, the “Percentage of necrotic neurons in the cortex, MEAN” value ([2]; Hypothermic) was 4.5% and 4.51%, the “Percentage of necrotic neurons in the cortex, MEAN” value ([2]; Normothermic) was 8.4% and 8.41% and the “volume of lesion (MRI), HI+CBD versus HI+VEH” value [3] was “similar”. For the same compound, the “rise in mean size of microglial cells versus control” value ([4]; CBD and hypothermia, versus hypothermic control (164)) was 12 pixels, the “Mean size of microglial cells after HI injury” value ([4]; Hypothermic (33-34° C.)) was 176 pixels and the “number of microglial cells, vehicle treated versus CBD treated animals” value ([4]; Hypothermic treatment, CBD 1 mg/kg i.v.) was “no differences”. For the same compound, the “Mean size of microglial cells after HI injury” value ([4]; Normothermic (37-38° C.)) was 127 pixels and the “rise in mean size of microglial cells versus control” value ([4]; Normothermic, CBD alone, versus normothermic control (102)) was 25 pixels.

Values joined by “and” are separate entries in the source; they are usually repeats but may differ in a detail not shown here. Equal values may be shown once.
